# Measured values as given in patent US10670605B2, “Cysteine reactive probes and uses thereof” (The Scripps Research Institute, priority 2015, dated 2020).
# Sequences of proteins named here, by UniProt entry; tags and fusion partners are left off.
# UniProt O75874, whole entry R132H, looked up: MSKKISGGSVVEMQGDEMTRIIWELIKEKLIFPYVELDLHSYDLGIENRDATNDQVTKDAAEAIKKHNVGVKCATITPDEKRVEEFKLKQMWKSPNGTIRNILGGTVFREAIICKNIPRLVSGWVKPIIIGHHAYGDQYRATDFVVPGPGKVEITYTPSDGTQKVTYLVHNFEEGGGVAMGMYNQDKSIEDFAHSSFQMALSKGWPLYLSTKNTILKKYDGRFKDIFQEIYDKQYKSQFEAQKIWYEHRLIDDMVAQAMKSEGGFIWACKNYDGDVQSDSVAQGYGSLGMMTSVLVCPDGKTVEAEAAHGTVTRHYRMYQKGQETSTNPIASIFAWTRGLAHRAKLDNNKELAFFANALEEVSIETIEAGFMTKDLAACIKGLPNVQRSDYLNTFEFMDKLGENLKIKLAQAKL
# Target: R132H-IDH1 in MUM2C cells (Homo sapiens, UniProt O75874, R132H)
# Assay: IDH1 2-hydroxyglutarate (2-HG) formation assay
# Details: 50 μM, 2 h in situ, assayed ex situ
smiles,measurement,value
O=C(CCl)N1CCC(C(O)(c2ccccc2)c2ccccc2)CC1,2-HG production by R132H cell lysates,near-completely blocked
